Like-named read-outs stand apart in the source and are kept apart here.
Tests used:
[1] = molecular target: rat α4β2 nAChR subtype (Rattus norvegicus (Rat), UniProt P09483+P12390); assay: Radioligand ([3H]nicotine) binding at α4β2 nAChR, rat cortex membranes; conditions: read-out: Rat α4β2 Ki, [3H]nicotine 5 nM
[2] = molecular target: human α4β2 nAChR subtype (Homo sapiens (Human), UniProt P17787+P43681); assay: Radioligand ([3H]nicotine) binding at α4β2 nAChR, SH-EP1/human α4β2 clonal cell membranes; conditions: read-out: Human α4β2 Ki, [3H]nicotine 5 nM
[3] = molecular target: α7 nAChR subtype (Rattus norvegicus (Rat), UniProt Q05941); assay: Radioligand ([3H]MLA) binding at α7 nAChR, rat hippocampus membranes
[4] = did not bind sufficiently in HTS at α7 to warrant Ki determination

Chains of the proteins cited; added tags and fusions are not shown. Residues count along the entry.
UniProt P09483, 31-630 limits assumed: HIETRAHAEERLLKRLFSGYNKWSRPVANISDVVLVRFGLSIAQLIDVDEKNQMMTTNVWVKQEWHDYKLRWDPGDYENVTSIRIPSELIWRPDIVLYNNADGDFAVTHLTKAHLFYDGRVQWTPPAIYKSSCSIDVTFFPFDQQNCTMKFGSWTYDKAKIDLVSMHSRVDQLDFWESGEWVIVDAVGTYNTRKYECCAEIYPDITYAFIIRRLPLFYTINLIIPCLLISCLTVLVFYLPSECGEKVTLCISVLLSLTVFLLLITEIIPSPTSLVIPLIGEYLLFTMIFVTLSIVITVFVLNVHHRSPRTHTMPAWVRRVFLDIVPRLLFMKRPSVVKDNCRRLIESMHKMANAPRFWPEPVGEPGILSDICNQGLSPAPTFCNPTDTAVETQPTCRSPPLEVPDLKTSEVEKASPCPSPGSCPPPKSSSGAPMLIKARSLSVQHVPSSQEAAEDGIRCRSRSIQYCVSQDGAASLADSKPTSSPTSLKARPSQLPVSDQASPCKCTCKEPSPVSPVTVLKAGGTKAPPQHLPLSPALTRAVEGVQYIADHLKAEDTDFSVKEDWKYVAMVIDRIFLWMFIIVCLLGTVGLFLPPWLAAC
UniProt P12390, 25-500 limits assumed: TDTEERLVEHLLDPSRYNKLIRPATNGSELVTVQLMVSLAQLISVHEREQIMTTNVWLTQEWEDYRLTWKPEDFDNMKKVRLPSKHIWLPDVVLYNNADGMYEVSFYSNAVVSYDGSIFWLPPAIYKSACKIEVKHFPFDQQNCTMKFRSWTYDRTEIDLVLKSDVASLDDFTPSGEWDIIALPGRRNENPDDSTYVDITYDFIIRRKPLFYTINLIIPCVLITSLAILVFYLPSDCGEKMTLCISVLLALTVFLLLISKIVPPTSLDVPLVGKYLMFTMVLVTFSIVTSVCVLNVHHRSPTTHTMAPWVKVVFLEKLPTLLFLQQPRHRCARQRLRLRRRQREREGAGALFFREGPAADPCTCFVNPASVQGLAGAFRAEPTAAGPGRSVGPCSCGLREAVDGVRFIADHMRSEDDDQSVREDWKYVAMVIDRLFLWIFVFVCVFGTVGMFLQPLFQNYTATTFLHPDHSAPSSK
UniProt P17787, 26-502 limits assumed: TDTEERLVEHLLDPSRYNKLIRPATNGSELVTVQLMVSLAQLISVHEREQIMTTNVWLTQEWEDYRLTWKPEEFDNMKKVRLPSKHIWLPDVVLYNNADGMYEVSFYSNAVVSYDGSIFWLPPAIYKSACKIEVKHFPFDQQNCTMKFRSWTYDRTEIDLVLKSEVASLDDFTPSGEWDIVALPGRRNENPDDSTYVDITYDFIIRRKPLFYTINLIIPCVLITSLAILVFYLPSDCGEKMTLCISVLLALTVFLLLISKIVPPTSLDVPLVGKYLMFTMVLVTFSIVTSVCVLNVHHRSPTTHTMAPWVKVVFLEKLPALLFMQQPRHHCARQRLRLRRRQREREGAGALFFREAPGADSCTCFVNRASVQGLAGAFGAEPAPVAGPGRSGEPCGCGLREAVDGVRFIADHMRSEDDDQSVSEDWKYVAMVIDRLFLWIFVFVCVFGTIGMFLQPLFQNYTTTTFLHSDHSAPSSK
UniProt P43681, 29-627 limits assumed: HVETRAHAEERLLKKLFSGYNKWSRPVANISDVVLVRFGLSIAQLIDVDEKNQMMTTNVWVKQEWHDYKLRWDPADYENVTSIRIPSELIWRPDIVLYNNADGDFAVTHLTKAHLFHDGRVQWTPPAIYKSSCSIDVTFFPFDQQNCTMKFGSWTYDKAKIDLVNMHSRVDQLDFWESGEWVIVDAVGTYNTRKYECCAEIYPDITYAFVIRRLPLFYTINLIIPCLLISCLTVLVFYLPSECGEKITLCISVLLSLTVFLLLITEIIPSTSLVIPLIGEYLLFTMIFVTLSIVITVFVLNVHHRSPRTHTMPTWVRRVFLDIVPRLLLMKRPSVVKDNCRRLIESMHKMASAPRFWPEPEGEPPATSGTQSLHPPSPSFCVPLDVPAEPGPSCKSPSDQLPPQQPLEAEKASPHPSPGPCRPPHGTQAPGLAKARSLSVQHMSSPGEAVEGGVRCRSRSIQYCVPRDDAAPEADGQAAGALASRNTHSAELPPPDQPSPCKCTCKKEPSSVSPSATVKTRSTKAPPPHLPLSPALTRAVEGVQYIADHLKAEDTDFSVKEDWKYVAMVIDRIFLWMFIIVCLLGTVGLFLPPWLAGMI
UniProt Q05941, 23-502 limits assumed: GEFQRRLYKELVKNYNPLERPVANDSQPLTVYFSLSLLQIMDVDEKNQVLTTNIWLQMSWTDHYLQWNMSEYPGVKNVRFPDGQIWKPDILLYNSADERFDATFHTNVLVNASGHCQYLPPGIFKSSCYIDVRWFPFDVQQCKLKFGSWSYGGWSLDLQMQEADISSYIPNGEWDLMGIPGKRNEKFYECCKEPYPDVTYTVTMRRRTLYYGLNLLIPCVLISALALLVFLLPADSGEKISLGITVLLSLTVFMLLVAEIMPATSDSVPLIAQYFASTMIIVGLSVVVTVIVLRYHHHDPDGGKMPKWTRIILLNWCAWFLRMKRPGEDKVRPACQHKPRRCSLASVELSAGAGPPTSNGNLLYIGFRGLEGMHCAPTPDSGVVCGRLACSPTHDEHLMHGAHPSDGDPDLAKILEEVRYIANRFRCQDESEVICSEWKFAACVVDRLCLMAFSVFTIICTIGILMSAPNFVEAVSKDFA

Row | Compound | Ki [1] [nM] | Ki [2] [nM] | α7 high through-put screening outcome (Ki not determined) [3, 4] | α7 high through-put screening outcome (Ki not determined) [3]
1 | NS(=O)(=O)c1coc(C(=O)N2CC3CNCC3C2)c1 (stereo not shown) | 31 | 28 | ND; failed HTS | –
2 | NS(=O)(=O)c1coc(C(=O)N2CC3CNCC(C3)C2)c1 | 86 | 62 | – | ND; failed HTS
3 | O=C(c1coc(C(F)F)c1)N1CC2CNCC2C1 (stereo not shown) | – | – | ND; failed HTS | –

Reference: US8921410B2, “Nicotinic acetylcholine receptor sub-type selective amides of diazabicycloalkanes” (Targacept, Inc., priority 2006, dated 2014)
